Source: patent publication US8026368B2, “Hydrazide compounds and thrombopoietin receptor activators” (Nissan Chemical Industries, Ltd., priority 2005, dated 2011)

Sequences of proteins named here, by UniProt entry; tags and fusion partners are left off. Residues count along the entry.
UniProt P40238, 26-635 limits assumed: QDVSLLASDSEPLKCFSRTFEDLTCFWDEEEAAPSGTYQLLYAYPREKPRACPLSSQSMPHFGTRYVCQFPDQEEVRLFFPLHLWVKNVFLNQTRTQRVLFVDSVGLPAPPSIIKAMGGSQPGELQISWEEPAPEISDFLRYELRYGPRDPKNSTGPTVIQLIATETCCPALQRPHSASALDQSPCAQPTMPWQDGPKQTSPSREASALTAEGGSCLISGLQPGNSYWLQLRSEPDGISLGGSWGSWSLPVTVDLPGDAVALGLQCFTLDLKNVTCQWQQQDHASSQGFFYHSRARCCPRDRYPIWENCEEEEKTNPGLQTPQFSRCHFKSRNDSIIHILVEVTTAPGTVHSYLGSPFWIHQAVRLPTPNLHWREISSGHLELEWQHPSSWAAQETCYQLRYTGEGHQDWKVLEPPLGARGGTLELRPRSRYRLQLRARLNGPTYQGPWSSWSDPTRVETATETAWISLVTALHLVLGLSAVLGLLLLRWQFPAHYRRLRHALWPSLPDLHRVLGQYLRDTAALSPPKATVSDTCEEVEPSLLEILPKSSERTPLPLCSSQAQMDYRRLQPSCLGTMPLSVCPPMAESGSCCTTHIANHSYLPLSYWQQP

Biological target: human thrombopoietin receptor (c-mpl) (Homo sapiens, UniProt P40238)
Experiment: Stimulation of proliferation of thrombopoietin-dependent cell line UT7/EPO-mpl (WST-8)
Settings: human leukemic cell line UT-7/EPO-mpl, 4 days incubation, WST-8, relative to 10 ng/mL TPO
Procedure: The responses of thrombopoietin receptor to the compounds of the present invention prepared in the Synthetic Examples were assayed using a human leukemic cell line, UT7/EPO-mpl.
UT7/EPO-mpl is a stable transformed cell line obtained by introducing into human leukemic cell line UT7/EPO a vector that induces expression of human thrombopoietin receptor (c-mpl) under control of cytomegalovirus immediate-early promoter by the method of Takatoku et al. (J. Biol. Chem., 272:7259-7263 (1997)). […] These two cell lines were subcultured in IMDM (GIBCO) containing 10% fetal bovine serum (Thermo Electron or BioWest) using a CO2 incubator (5% CO2, 37° C.).
The subcultured cells described above were washed twice with PBS and suspended in IMDM containing 10% fetal bovine serum at a cell density of 6×10^4 cells/ml. The cell suspension was transferred to a 96-well tissue culture plate (CORNING) in 100-μl aliquots. Then either thrombopoietin (Pepro Tech EC) or the compounds of the Synthetic Examples dissolved in dimethyl sulfoxide were diluted 83-fold with IMDM containing 10% fetal bovine serum and added to the aforementioned cell suspension in 20-μl aliquots. The cell suspension was incubated in a CO2 incubator (5% CO2, 37° C.) for 4 days. […] The formazan pigment generated was detected by measuring the absorbance at 450 nm with a 96-well microplate reader (Nihon Molecular Devices, Spectramax 190). […]

Row | Compound | EC50 (concentration that yields a growth rate corresponding to 50% of the growth observed in the presence of 10 ng/mL TPO)
1 | CC1=NN(c2ccc(C(F)(F)F)cc2)C(=O)/C1=C(/C)NNC(=O)c1ccc(C(=O)NCc2cccnc2)s1 | 0.26 ng/mL
2 | CC1=NN(c2ccc(C)c(C)c2)C(=O)C1=C(C)NNC(=O)c1ccc(C(=O)NC(C)C)s1 | 2.3 ng/mL
